Measurements from PubChem BioAssay AID493091 (Sanford-Burnham Center for Chemical Genomics, 2011).
The list shows a part of the results, in another mix than the full data. Calls of active or inactive are those of the source.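 How the source made its calls: active means inhibition above about 50% at 20 µM (limit read from the data); inactive means the rest.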

Chains of the proteins cited; added tags and fusions are not shown. Lines headed by an entry give the natural chain unless they say otherwise; changes in a name come on top.
UniProt Q9GZU7: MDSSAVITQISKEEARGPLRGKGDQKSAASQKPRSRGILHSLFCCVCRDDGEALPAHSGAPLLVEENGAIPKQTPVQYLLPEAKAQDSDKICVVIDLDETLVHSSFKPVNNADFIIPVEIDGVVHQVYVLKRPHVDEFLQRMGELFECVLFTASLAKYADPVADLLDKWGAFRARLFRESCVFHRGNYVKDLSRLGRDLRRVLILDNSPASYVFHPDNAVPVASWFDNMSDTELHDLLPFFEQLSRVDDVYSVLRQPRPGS

Each compound was assayed against Carboxy-terminal domain RNA polymerase II polypeptide A small phosphatase 1 (Homo sapiens) (UniProt Q9GZU7) (assay: inhibition of human SCP1 dephosphorylation activity – biochemical, colorimetric, uHTS, primary screen (AID 493091;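 further: plate controls were DMSO wells with enzyme for no effect and wells lacking enzyme for full effect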)). Conditions: Recombinant Scp1, phosphopeptide, malachite green phosphate absorbance; at 20 µM; stronger effect = higher value.
Outline: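 Test system: SCP-1 catalytic domain; Buffer or medium: Acidic Tris acetate buffer with magnesium and detergent; Also added: Phosphorylated 17-residue peptide substrate; Compound: single 20 µM dose, 1% DMSO; Schedule: enzyme reaction 45 min at room temperature, colour 5 min, stabilisation 30 min; Signal: Phosphate-binding colour reagent, absorbance read at 630 nm.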
For `Cc1ccc(C(=O)OC2CN3CCC2CC3)cc1` (stereo not drawn), the inhibition was inactive: -11%. With `CN(C)C1(CNC(=O)c2ccc(S(C)(=O)=O)cc2)CCCCC1` the inhibition was inactive: -8.95%. With `O=C(/C=C/c1ccccc1)OC1CN2CCC1CC2` (stereo not drawn) the inhibition was inactive: 6.53%. For `CCCC1OP(=O)(Nc2ccccc2)OCC1CC` (stereo not drawn), the inhibition was inactive: -9.59%. In the case of `NC(=O)Nc1ccc([As](=O)(O)O)cc1`, the inhibition was inactive: 0.8%. With `N#CCCN(C(=O)COC(=O)C(O)(c1ccccc1)c1ccccc1)c1ccc(F)cc1` the inhibition was inactive: -1.18%. With `CN(C(=O)Cc1ccccc1)[C@@H]1CC[C@]2(CCCO2)C[C@H]1N1CCCC1` the inhibition was inactive: -3.76%. `CCOP1(=S)c2c(C)nn(CCC#N)c2N=C(c2ccc(F)cc2)N1C` (stereo not drawn) was tested, and the inhibition was inactive: 3.54%. `O=[N+]([O-])c1ccc2c(c1)nnn2O` was tested, and the inhibition was inactive: 0.54%. For `CN(C)C(=O)c1cc([N+](=O)[O-])cc2c1-c1c(cc([N+](=O)[O-])cc1[N+](=O)[O-])C2=O`, the inhibition was inactive: -14.9%. `CN(C(=O)Cc1ccc(Cl)c(Cl)c1)[C@H]1CC[C@@]2(CCCO2)C[C@@H]1N1CCCC1` was tested, and the inhibition was inactive: 19%. With `CCOP1(=S)c2c(C)nn(CCC#N)c2N=C(c2ccccc2F)N1C` (stereo not drawn) the inhibition was inactive: 0.3%. `O=P(Nc1nccs1)(Oc1ccccc1)Oc1ccccc1` was tested, and the inhibition was inactive: -2.82%. In the case of `O=P(Nc1nccs1)(c1ccccc1)c1nc2ccccc2s1` (stereo not drawn), the inhibition was active: 99%. In the case of `CS(=O)(=O)c1cc([N+](=O)[O-])c2no[n+]([O-])c2c1`, the inhibition was inactive: 27.3%. For `Nc1ccccc1[As](=O)(O)c1ccccc1`, the inhibition was inactive: 2.54%. With `O=C(O)COc1ccc([As](=O)(O)O)cc1[N+](=O)[O-]` the inhibition was inactive: 0.85%. In the case of `Nc1cccc2c([As](=O)(O)O)cccc12`, the inhibition was inactive: 6.32%. With `Cc1ccc(NCCc2c([N+](=O)[O-])cc([N+](=O)[O-])cc2[N+](=O)[O-])cc1` the inhibition was inactive: -5.24%. With `CCCOP(=S)(Nc1nc(N)cc(=O)[nH]1)OCCC` the inhibition was inactive: -7.74%. For `COc1cc(C2NCCC3(OCCO3)C2(C)C)cc(OC)c1OC` (stereo not drawn), the inhibition was inactive: -2.73%. `CCOP(=O)(Nc1cccc2ccccc12)OCC` was tested, and the inhibition was inactive: -6.33%. For `O=C(OC1CN2CCC1CC2)c1ccc(Cl)cc1` (stereo not drawn), the inhibition was inactive: -0.65%. `O=[As](O)(O)c1cccnc1` was tested, and the inhibition was inactive: -1.97%. In the case of `COc1cc(C(=O)NCC2(N3CCOCC3)CCCCC2)cc(Cl)c1OC(C)C`, the inhibition was inactive: -1.26%. With `CS(=O)(=O)c1ccc(Cl)c(NC(=O)COC(=O)C(O)(c2ccccc2)c2ccccc2)c1` the inhibition was inactive: -9.49%. `Cc1cccc(OCC(=O)OC2CN3CCC2CC3)c1` (stereo not drawn) was tested, and the inhibition was inactive: -1.59%. For `O=[As](O)(c1cccc(O)c1)c1cccc(O)c1`, the inhibition was inactive: -7.37%. With `Cc1ccccc1CN(C)C(=O)COC(=O)C(O)(c1ccccc1)c1ccccc1` the inhibition was inactive: -0.14%. With `C[C@H]1OP(=O)(Oc2ccccc2)C[C@@H]2O[C@@H]21` (stereo partly drawn) the inhibition was inactive: -2.7%. `C[C@@H]1C=CCP(=O)(Oc2ccccc2)O1` (stereo partly drawn) was tested, and the inhibition was inactive: -2.33%. For `CC(=O)c1ccc(N2CC2c2ccncc2)cc1` (stereo not drawn), the inhibition was inactive: -9.05%. `N#C/C(=C\c1ccc(N(CCBr)CCBr)cc1)C(N)=O` was tested, and the inhibition was inactive: 7.12%. With `COC(=O)C1(C)COP(=O)(NCc2ccccc2)OC1` (stereo not drawn) the inhibition was inactive: 2.17%. For `CC(=O)Nc1ccc([As](=O)(O)O)c(O)c1`, the inhibition was inactive: -8.45%. With `CC(=O)Nc1ccc(Oc2c([N+](=O)[O-])cc([N+](=O)[O-])cc2[N+](=O)[O-])cc1` the inhibition was inactive: -3.02%. `O=P1(Nc2nc3ccc(Cl)cc3s2)COc2ccccc2O1` (stereo not drawn) was tested, and the inhibition was inactive: -4.34%. With `CCOc1ccc(C2=NCC(CBr)S2)cc1` (stereo not drawn) the inhibition was inactive: -5.95%. For `CC(C)(C)C(=O)NC(Sc1ccccc1)C(Cl)(Cl)Cl` (stereo not drawn), the inhibition was inactive: -1.41%. For `CCc1cc(O)c([N+](=O)[O-])c(C)c1[N+](=O)[O-]`, the inhibition was inactive: -5.38%. In the case of `O=C(OC1CN2CCC1CC2)c1ccccc1` (stereo not drawn), the inhibition was inactive: 0.1%. With `CCC(=O)N1C2C3N(C(=O)CC)C1C1N(C(=O)CC)C(C(N1C(=O)CC)N3C(=O)CC)N2C(=O)CC` the inhibition was inactive: -0.56%. `COC(=O)c1cc2c(s1)N=C(c1ccccc1)N(C)P2(=O)N1CCOCC1` (stereo not drawn) was tested, and the inhibition was inactive: 1.08%. For `Cc1ccc(OP(=O)(Nc2ccccn2)Oc2ccc(C)cc2)cc1`, the inhibition was inactive: -1.31%. For `CC(=O)NC(SC(=S)N(CC(C)C)CC(C)C)C(Cl)(Cl)Cl` (stereo not drawn), the inhibition was inactive: -0.04%. In the case of `CC(NC(=O)COC(=O)C(O)(c1ccccc1)c1ccccc1)c1ccccc1` (stereo not drawn), the inhibition was inactive: -2.35%. In the case of `Cc1ccccc1OP(=O)(Nc1ccccn1)Oc1ccccc1C`, the inhibition was inactive: -8.94%. With `O=c1c2cc([N+](=O)[O-])ccc2[nH]c2c([N+](=O)[O-])cc([N+](=O)[O-])cc12` the inhibition was inactive: -0.75%. `CN(C)C(=O)Oc1noc2ccccc12` was tested, and the inhibition was inactive: -9.52%. `c1ccc(-c2nn[nH]n2)c(-c2nn[nH]n2)c1` was tested, and the inhibition was inactive: 1.45%. With `Cc1ccc(NP(=O)(Oc2cccc(C)c2)Oc2cccc(C)c2)nc1` the inhibition was inactive: -4.25%. In the case of `CCNC(=S)/N=C(\N)N[N+](=O)[O-]`, the inhibition was inactive: -1.87%. For `O=C(NC1CCS(=O)(=O)C1)NP(=S)(Oc1ccccc1)Oc1ccccc1` (stereo not drawn), the inhibition was inactive: -5.19%. With `O=P1(N(CCCl)CCCl)OCCC2CCCCN21` (stereo not drawn) the inhibition was inactive: -2.23%. `O=[As](O)(c1ccccc1)c1ccc(O)cc1` was tested, and the inhibition was inactive: 3.46%. `O=[N+]([O-])c1ccc(O)c(/C=N/Nc2ccc([N+](=O)[O-])cc2[N+](=O)[O-])c1` was tested, and the inhibition was inactive: -0.64%. For `O=[N+]([O-])c1ncn(CCn2cnc([N+](=O)[O-])n2)n1`, the inhibition was inactive: -9.01%. For `CC(=O)NC(SC(=S)N(C)C)C(Cl)(Cl)Cl` (stereo not drawn), the inhibition was inactive: -2.27%. For `O=C(OC1CN2CCC1CC2)c1cccc(Cl)c1` (stereo not drawn), the inhibition was inactive: -9.67%. In the case of `C(Cc1nn[nH]n1)Cc1nn[nH]n1`, the inhibition was inactive: -4.57%. In the case of `Nc1ccc([As](=O)(O)c2ccc([N+](=O)[O-])cc2)cc1`, the inhibition was inactive: -9.01%. `O=P(Nc1ccccn1)(c1ccc(Br)cc1)c1ccc(Br)cc1` was tested, and the inhibition was inactive: -1.31%. `CN(C)C1(CNC(=O)c2ccc(Cl)c(S(N)(=O)=O)c2)CCCCC1` was tested, and the inhibition was inactive: -9.04%.
